Consider 30 molecules from BindingDB's records for doi:10.1016/s0968-0896(99)00316-8 (Universita Degli Studi Di Firenze, 2000).

This assay deals with T1, Collagenase ColG (Hathewaya histolytica, UniProt Q9X721).
T1 sequence (Q9X721 whole entry): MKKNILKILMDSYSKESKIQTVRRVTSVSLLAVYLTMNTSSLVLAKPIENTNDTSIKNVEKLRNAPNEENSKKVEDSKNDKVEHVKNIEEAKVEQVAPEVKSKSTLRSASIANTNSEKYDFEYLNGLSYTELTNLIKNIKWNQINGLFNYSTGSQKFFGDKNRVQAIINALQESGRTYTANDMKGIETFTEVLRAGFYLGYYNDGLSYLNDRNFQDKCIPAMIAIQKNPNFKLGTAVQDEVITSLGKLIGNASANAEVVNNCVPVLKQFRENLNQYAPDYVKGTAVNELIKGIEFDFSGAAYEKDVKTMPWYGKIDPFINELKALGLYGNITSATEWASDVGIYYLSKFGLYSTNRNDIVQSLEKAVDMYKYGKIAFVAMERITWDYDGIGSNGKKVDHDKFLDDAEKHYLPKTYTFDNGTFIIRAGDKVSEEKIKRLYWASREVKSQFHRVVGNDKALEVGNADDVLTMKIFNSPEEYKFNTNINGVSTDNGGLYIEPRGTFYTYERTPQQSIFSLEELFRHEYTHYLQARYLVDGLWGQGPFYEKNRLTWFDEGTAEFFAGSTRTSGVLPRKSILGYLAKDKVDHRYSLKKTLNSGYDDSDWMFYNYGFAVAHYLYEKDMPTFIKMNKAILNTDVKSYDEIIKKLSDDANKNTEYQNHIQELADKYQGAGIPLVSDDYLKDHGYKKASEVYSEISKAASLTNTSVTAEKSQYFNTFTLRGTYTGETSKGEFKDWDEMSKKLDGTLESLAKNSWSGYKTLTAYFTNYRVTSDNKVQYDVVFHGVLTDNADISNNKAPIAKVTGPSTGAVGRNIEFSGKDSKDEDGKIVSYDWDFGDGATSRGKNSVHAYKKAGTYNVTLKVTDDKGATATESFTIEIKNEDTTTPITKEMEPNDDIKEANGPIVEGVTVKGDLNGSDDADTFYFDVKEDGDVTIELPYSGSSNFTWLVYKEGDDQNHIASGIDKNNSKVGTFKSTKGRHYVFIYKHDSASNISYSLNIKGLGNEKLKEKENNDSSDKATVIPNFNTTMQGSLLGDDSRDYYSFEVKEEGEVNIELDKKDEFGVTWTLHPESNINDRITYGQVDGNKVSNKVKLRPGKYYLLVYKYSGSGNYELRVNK
The assay is described as follows: ChC Enzyme Inhibition Assay. The procedure: The rate of hydrolysis was determined from the change in absorbance at 324 nm using an extinction coefficient, 24700 M-1 cm-1 for FALGPA. Initial velocities were thus estimated using the direct linear plot-based procedure. The inhibition constant Ki was then determined by using Easson-Stedman plots and a linear regression program.

With `CC(C(=O)NO)N(Cc1ccccc1Cl)C(=O)NS(=O)(=O)c1ccc(Cl)cc1` (stereo not given) [2-({[(4-chlorobenzene)sulfonyl]carbamoyl}[(2-chlorophenyl)methyl]amino)-N-hydroxypropanamide], affinity was put at a Ki of 8 nM.
On the same count and under the same terms, the value for `CC(C(=O)O)N(Cc1ccccc1Cl)C(=O)NS(=O)(=O)c1ccc(Cl)cc1` (stereo not given) [2-({[(4-chlorobenzene)sulfonyl]carbamoyl}[(2-chlorophenyl)methyl]amino)propanoic acid] was 3400 nM; that for `CC(C(=O)NO)N(Cc1ccccc1Cl)S(=O)(=O)c1ccc([N+](=O)[O-])c(Cl)c1` (stereo not given) [2-[(3-chloro-4-nitrobenzene)[(2-chlorophenyl)methyl]sulfonamido]-N-hydroxypropanamide] was 10 nM; that for `CC(C(=O)O)N(Cc1ccccc1Cl)S(=O)(=O)c1ccc([N+](=O)[O-])c(Cl)c1` (stereo not given) [2-[(3-chloro-4-nitrobenzene)[(2-chlorophenyl)methyl]sulfonamido]propanoic acid] was 3100 nM.
As to `COc1ccc(S(=O)(=O)N(Cc2ccccc2Cl)C(C)C(=O)O)cc1NC(=O)OC(C)(C)C` (stereo not given) [2-[(3-{[(tert-butoxy)carbonyl]amino}-4-methoxybenzene)[(2-chlorophenyl)methyl]sulfonamido]propanoic acid], affinity was put at a Ki of 3000 nM.
`CC(C(=O)NO)N(Cc1ccccc1Cl)S(=O)(=O)c1ccc(Br)cc1` (stereo not given) [2-[(4-bromobenzene)[(2-chlorophenyl)methyl]sulfonamido]-N-hydroxypropanamide] had a Ki of 33 nM.
For `CC(C(=O)O)N(Cc1ccccc1Cl)S(=O)(=O)c1ccc(Br)cc1` (stereo not given) [2-[(4-bromobenzene)[(2-chlorophenyl)methyl]sulfonamido]propanoic acid], the affinity (pH 7.5, 25 °C) corresponds to a Ki of 10000 nM.
`CC(C(=O)O)N(Cc1ccccc1Cl)S(=O)(=O)c1ccc(Cl)cc1` (stereo not given) [2-[(4-chlorobenzene)[(2-chlorophenyl)methyl]sulfonamido]propanoic acid] displayed a Ki (pH 7.5, 25 °C) of 13000 nM.
The molecule `CC(C(=O)O)N(Cc1ccccc1Cl)S(=O)(=O)c1ccc(NC(=O)OC(C)(C)C)cc1` (stereo not given) [2-[(4-{[(tert-butoxy)carbonyl]amino}benzene)[(2-chlorophenyl)methyl]sulfonamido]propanoic acid] displayed a Ki of 2700 nM.
Turning to `CC(C(=O)O)N(Cc1ccccc1Cl)S(=O)(=O)C(F)(F)C(F)(F)C(F)(F)C(F)(F)F` (stereo not given) [2-{[(2-chlorophenyl)methyl](1,1,2,2,3,3,4,4,4-nonafluorobutane)sulfonamido}propanoic acid], the affinity (pH 7.5, 25 °C) corresponds to a Ki of 3000 nM.
`CC(C(=O)NO)N(Cc1ccccc1Cl)S(=O)(=O)C(F)(F)C(F)(F)C(F)(F)C(F)(F)C(F)(F)C(F)(F)C(F)(F)C(F)(F)F` (stereo not given) [2-{[(2-chlorophenyl)methyl](1,1,2,2,3,3,4,4,5,5,6,6,7,7,8,8,8-heptadecafluorooctane)sulfonamido}-N-hydroxypropanamide] gave a Ki of 8 nM.
In the case of `CC(C(=O)O)N(Cc1ccccc1Cl)S(=O)(=O)C(F)(F)C(F)(F)C(F)(F)C(F)(F)C(F)(F)C(F)(F)C(F)(F)C(F)(F)F` (stereo not given) [2-{[(2-chlorophenyl)methyl](1,1,2,2,3,3,4,4,5,5,6,6,7,7,8,8,8-heptadecafluorooctane)sulfonamido}propanoic acid], the Ki (pH 7.5, 25 °C) came out at 1500 nM.
Molecule `CC(C(=O)NO)N(Cc1ccccc1Cl)S(=O)(=O)c1c(F)c(F)c(F)c(F)c1F` (stereo not given) [2-{[(2-chlorophenyl)methyl](2,3,4,5,6-pentafluorobenzene)sulfonamido}-N-hydroxypropanamide] yielded a Ki of 5 nM.
Regarding `CC(C(=O)O)N(Cc1ccccc1Cl)S(=O)(=O)c1c(F)c(F)c(F)c(F)c1F` (stereo not given) [2-{[(2-chlorophenyl)methyl](2,3,4,5,6-pentafluorobenzene)sulfonamido}propanoic acid], the Ki was found to be 400 nM.
The same measure, in the same setting: the value for `Cc1cc(C)c(S(=O)(=O)N(Cc2ccccc2Cl)C(C)C(=O)O)c(C)c1` (stereo not given) [2-{[(2-chlorophenyl)methyl](2,4,6-trimethylbenzene)sulfonamido}propanoic acid] was 6800 nM; that for `CC(C(=O)NO)N(Cc1ccccc1Cl)S(=O)(=O)c1cc(Cl)ccc1Cl` (stereo not given) [2-{[(2-chlorophenyl)methyl](2,5-dichlorobenzene)sulfonamido}-N-hydroxypropanamide] was 15 nM; that for `CC(C(=O)O)N(Cc1ccccc1Cl)S(=O)(=O)c1cc(Cl)ccc1Cl` (stereo not given) [2-{[(2-chlorophenyl)methyl](2,5-dichlorobenzene)sulfonamido}propanoic acid] was 4100 nM.
On to `CC(C(=O)O)N(Cc1ccccc1Cl)S(=O)(=O)c1ccccc1[N+](=O)[O-]` (stereo not given) [2-{[(2-chlorophenyl)methyl](2-nitrobenzene)sulfonamido}propanoic acid], for which, where the note is “pH 7.5, 25 °C”, the Ki stood at 4900 nM.
With `CC(C(=O)NO)N(Cc1ccccc1Cl)S(=O)(=O)c1cc(Cl)cc(Cl)c1O` (stereo not given) [2-{[(2-chlorophenyl)methyl](3,5-dichloro-2-hydroxybenzene)sulfonamido}-N-hydroxypropanamide], the affinity, expressed as Ki, was 9 nM.
`CC(C(=O)O)N(Cc1ccccc1Cl)S(=O)(=O)c1cc(Cl)cc(Cl)c1O` (stereo not given) [2-{[(2-chlorophenyl)methyl](3,5-dichloro-2-hydroxybenzene)sulfonamido}propanoic acid] displayed a Ki of 2400 nM.
Turning to `CC(C(=O)NO)N(Cc1ccccc1Cl)S(=O)(=O)c1cccc([N+](=O)[O-])c1` (stereo not given) [2-{[(2-chlorophenyl)methyl](3-nitrobenzene)sulfonamido}-N-hydroxypropanamide], the Ki is 11 nM.
`CC(C(=O)O)N(Cc1ccccc1Cl)S(=O)(=O)c1cccc([N+](=O)[O-])c1` (stereo not given) [2-{[(2-chlorophenyl)methyl](3-nitrobenzene)sulfonamido}propanoic acid] gave a Ki (pH 7.5, 25 °C) of 5000 nM.
The molecule `CC(=O)Nc1ccc(S(=O)(=O)N(Cc2ccccc2Cl)C(C)C(=O)O)cc1` (stereo not given) [2-{[(2-chlorophenyl)methyl](4-acetamidobenzene)sulfonamido}propanoic acid] yielded a Ki of 3000 nM.
As for `CC(C(=O)O)N(Cc1ccccc1Cl)S(=O)(=O)c1ccc(F)cc1` (stereo not given) [2-{[(2-chlorophenyl)methyl](4-fluorobenzene)sulfonamido}propanoic acid], the affinity (pH 7.5, 25 °C) corresponds to a Ki of 12000 nM.
`CC(C(=O)O)N(Cc1ccccc1Cl)S(=O)(=O)c1ccc(I)cc1` (stereo not given) [2-{[(2-chlorophenyl)methyl](4-iodobenzene)sulfonamido}propanoic acid] returned a Ki (pH 7.5, 25 °C) of 10000 nM.
For `COc1ccc(S(=O)(=O)N(Cc2ccccc2Cl)C(C)C(=O)O)cc1` (stereo not given) [2-{[(2-chlorophenyl)methyl](4-methoxybenzene)sulfonamido}propanoic acid], the Ki turned out to be 6000 nM.
In turn, `Cc1ccc(S(=O)(=O)N(Cc2ccccc2Cl)C(C)C(=O)NO)cc1` (stereo not given) [2-{[(2-chlorophenyl)methyl](4-methylbenzene)sulfonamido}-N-hydroxypropanamide] returned a Ki of 45 nM.
On to `Cc1ccc(S(=O)(=O)N(Cc2ccccc2Cl)C(C)C(=O)O)cc1` (stereo not given) [2-{[(2-chlorophenyl)methyl](4-methylbenzene)sulfonamido}propanoic acid], for which the Ki (pH 7.5, 25 °C) came to 18000 nM.
Consider `CC(C(=O)NO)N(Cc1ccccc1Cl)S(=O)(=O)c1ccc([N+](=O)[O-])cc1` (stereo not given) [2-{[(2-chlorophenyl)methyl](4-nitrobenzene)sulfonamido}-N-hydroxypropanamide], for which affinity was put at a Ki of 15 nM.
Turning to `CC(C(=O)NO)N(Cc1ccccc1Cl)S(=O)(=O)N(C)C` (stereo not given) [2-{[(2-chlorophenyl)methyl](dimethylsulfamoyl)amino}-N-hydroxypropanamide], the affinity corresponds to a Ki of 77 nM.

Broadly, the Ki is the dissociation constant of the complex between target and ligand, obtained from inhibition or displacement. Low values mean a stronger hold on the target, high ones a looser hold on the target.
